Apparent affinities of Ab-14 variants for a coronavirus HR2 peptide

Binding partner: SARS-CoV-2 spike HR2 peptide, sequence PDVDLGDISGINAS.

Ab-14 is the parent antibody, in scFv form: VH, then the linker GGGGSGGGGSGGGGS, then VL. The light chain is unchanged in all variants.
VH: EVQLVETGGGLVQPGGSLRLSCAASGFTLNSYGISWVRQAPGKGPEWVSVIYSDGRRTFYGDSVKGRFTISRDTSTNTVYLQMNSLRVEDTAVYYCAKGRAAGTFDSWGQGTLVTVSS
VL: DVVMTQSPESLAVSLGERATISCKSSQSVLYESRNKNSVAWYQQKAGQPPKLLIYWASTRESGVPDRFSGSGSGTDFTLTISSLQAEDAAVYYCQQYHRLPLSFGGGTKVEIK

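The variants were designed computationally from a first round of random CDR variants and then made and measured. Group labels follow the data file (Ctrl: baseline library sampled from a position-specific scoring matrix, with some repeated check sequences; Rand: our label for a block that the file lists under HC and that is probably the random mutants of the ten best first-round binders; En: ensemble of fine-tuned language models; GP: Gaussian process model; GPLM: also part of the Gaussian process libraries; HC: hill climbing; Gen: genetic algorithm; Gibbs: Gibbs sampling; a sequence that several methods proposed may carry one label only). Affinity was read by AlphaSeq, a pooled yeast mating assay with surface-displayed partners. The frequency of each diploid, read from paired DNA barcodes, reflects how well the two displayed proteins bind. Each replicate has its own calibration line, from reference interactions of the BCL2 family. Mating was done six times.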

Each variant is given by its three heavy chain CDRs, as the data file delimits them; those of the parent are GFTLNSYGIS, VIYSDGRRTFYGDSVK, GRAAGTFDS.
The Kd shown is the geometric mean over detected replicates; a lower Kd is a better binder.
Where no diploid with the target was found in any replicate, the entry reads "no signal": below detection, most likely a poor binder, though not proof of it.

CDR-H1 | CDR-H2 | CDR-H3 | group | Kd (apparent) | replicates with signal | control signals
GDTLNSYGIS | VIYSDGRRTFYGDSVK | TRAAGTFDS | Ctrl | 210 nM | 1 of 6 | 0 of 18
GFTLNKYGIS | VIYADGRRTFYDDSVK | GRAAGTFIS | Ctrl | 910 pM | 6 of 6 | 0 of 18
GFSLKSYGIS | VIYSDGRRTFYADSVK | GQAAGTFDS | GPLM_Gen | 4.2 nM | 6 of 6 | 0 of 18
GFDIEEMGVS | VIYADGIRTAVSEDVK | GNVAGTGDF | En_Gibbs | 350 pM | 6 of 6 | 1 of 18
GFVLNSYGIS | VIYSDGRRTFYADSVK | GKTAGTFDS | GPLM_Gibbs | 10 nM | 6 of 6 | 0 of 18
GFDLDEYGIS | VIYADGMRKAYADSVK | GEVAGTFDL | En_Gen | 370 pM | 6 of 6 | 0 of 18
GDSLNEYGIS | VIYADGLRSKYADKFK | GQEAGYFDV | En_Gibbs | no signal | 0 of 6 | 1 of 18
KFYLNSYGIN | VIYSDGIRTFYDDSVK | GQLAGTFDS | Rand | no signal | 0 of 6 | 0 of 18
GFDLNEYGIS | VIYADGQRTAYIDSVK | GNQAGTFDV | En_Gen | 480 pM | 6 of 6 | 0 of 18
GFDLNEYGIS | VIYADGKRTAYTDSVK | GGNAGTFDV | En_Gen | 570 pM | 6 of 6 | 1 of 18
GFDLNEYGIS | VIYADGSRTAYADSVK | GEVAGTFDQ | En_Gen | 910 pM | 6 of 6 | 0 of 18
GFSLNEYGIS | VIYSDGRRTFYVDSVK | GRAAGTFDS | GPLM_Gen | 2.0 nM | 6 of 6 | 1 of 18
GFSLNSYGIS | VIYSDGRRTFYGDSVK | GNAAGTFDS | GPLM_Gen | 4.6 nM | 6 of 6 | 0 of 18
GFDLNEYGIS | VIYADGMRKAYADSVK | GNQAGTFDV | En_Gen | 140 pM | 6 of 6 | 0 of 18
GFSLDEYGIS | VIYADGRRTFYADSVK | GEVAGTFDV | En_HC | 210 pM | 6 of 6 | 1 of 18
GFDLNEYGIS | VIYADGSRTAYSDSVK | GNVAGTFDV | En_Gen | 670 pM | 6 of 6 | 0 of 18
GFELNSYGIS | VIYSDGRRTFYGDSVK | GRAQGTTDS | Ctrl | no signal | 0 of 6 | 0 of 18
GFDLNEYGIS | VIYADGRRTFYIDSVK | GEIAGTFDS | En_HC | 290 pM | 6 of 6 | 0 of 18
GFDLNEYGIS | VIYADGRRTFYADSVK | GHAAGTFDQ | En_HC | 5.7 nM | 6 of 6 | 0 of 18
GFNLNSYGIS | VIYSDGRRTFYADSVK | GTAAGTFDS | GPLM_Gen | 3.0 nM | 6 of 6 | 0 of 18
GFDLDEYGIS | VIYADGVRTAYADSVK | GNQAGTFDL | En_Gen | 4.0 nM | 6 of 6 | 1 of 18
GFDLNSYGIS | VIYSDGRRTYYAYSVK | GRAAGTFDS | Ctrl | 130 nM | 4 of 6 | 0 of 18
GFTLDSYGIS | VIYADGRRTFYGDSVK | GRAAGTFSS | GP_HC | 230 pM | 6 of 6 | 0 of 18
GFDLNSYGIS | VIYSDGRRTSYGDSVK | GRAAGLFDS | Ctrl | no signal | 0 of 6 | 1 of 18
GFDLNEYGIS | VIYADGSRTAYADSVK | GSNAGTFDI | En_Gen | 53 nM | 3 of 6 | 0 of 18
GFTLNSYGIS | VIYSDGRRTFYDDSVK | GRAAGTFDS | Ctrl | 34 nM | 6 of 6 | 0 of 18
GFDLNEYGIS | VIYADGMRKAYSDSVK | GNNAGTFDV | En_Gen | 220 pM | 6 of 6 | 0 of 18
GFDLDEYGIS | VIYADGMRTAYADSVK | GKNAGTFDL | En_Gen | 270 pM | 6 of 6 | 0 of 18
GFDLNKYGIS | VIYSDGRRTFYGDSVK | GRQAGTFDS | GP_Gibbs | 3.2 nM | 6 of 6 | 0 of 18
GFSLNEYGIS | VIYSDGRRTFYIDSVK | GHAAGTFDS | GPLM_Gibbs | 1.7 nM | 6 of 6 | 0 of 18
GFDLNEYGIS | VIYADGRRTFYTDSVK | GGNAGTFDS | En_HC | 370 pM | 6 of 6 | 0 of 18
GFSLNEYGIS | VIYSDGRRTFYGDSVK | GLAAGTFDK | GPLM_Gen | 2.0 nM | 6 of 6 | 0 of 18
GFDLNSYGIS | VIYSDGRRTFYDDSVK | GQLAGTFDS | GPLM_HC | 130 nM | 1 of 6 | 0 of 18

The remaining entries, values ahead:

Kd (apparent) | replicates with signal | control signals | CDR-H1 | CDR-H2 | CDR-H3 | group
1.2 nM | 6 of 6 | 1 of 18 | GFDLNSYGIS | VIYSDGRRTFYDDSVK | GQTAGTFDS | GP_Gen
no signal | 0 of 6 | 0 of 18 | GFGLEEFGIS | VIYADGFRRAYAQDVK | GGTAGHFVV | En_Gibbs
270 pM | 6 of 6 | 0 of 18 | GFDLNEYGIS | VIYADGRRTFYADSVK | GQLAGTFDD | En_HC
140 pM | 6 of 6 | 0 of 18 | GFDLDEYGIS | VIYADGMRTAYSDSVK | GTNAGTFDM | En_Gen
1.1 nM | 6 of 6 | 0 of 18 | GFDLNEYGIS | VIYADGVRTAYTDSVK | GNVAGTFDL | En_Gen
no signal | 0 of 6 | 1 of 18 | GFDLNSYGIS | VIYSDGRRTFYSDNVK | GRAAFTFDS | Ctrl
79 nM | 1 of 6 | 0 of 18 | GFTSNSYGIS | VIYSDGRRCSYGDSVK | GRAAGTFDS | Ctrl
3.0 nM | 6 of 6 | 0 of 18 | GFELNSYGIS | VIYSDGRRTFYSDSVK | GAAAGTFDS | GP_Gen
1.4 nM | 6 of 6 | 2 of 18 | GFSLNEYGIS | VIYSDGRRTFYKDSVK | GRQAGTFDS | GPLM_HC
no signal | 0 of 6 | 0 of 18 | GFDLNSYGIS | VIYSDGRRKFYGDNVK | GRAACTFDS | Ctrl
no signal | 0 of 6 | 1 of 18 | GFTLRSYGIS | VDYSDGRKTFYGDSVR | GRAAGQSDS | Ctrl
58 nM | 5 of 6 | 1 of 18 | GFDLNSYGIS | VIYSDGRRTFYDDSVK | GRIAGTFNS | Ctrl
11 nM | 6 of 6 | 1 of 18 | GFTLNSYGIS | VIYSDGHRTFYDDSVK | GQVAGTFDS | GPLM_HC
240 nM | 6 of 6 | 0 of 18 | GFSLNNYGIS | VIYSDGRRTFYCDAVK | GRTAGTFDS | GP_Gibbs
260 pM | 6 of 6 | 0 of 18 | GFDLNEYGIS | VIYADGRRTYYIDSVK | GENAGTFDM | En_HC
1.5 nM | 6 of 6 | 0 of 18 | GFTLNEYGIS | VIYSDGRRTFYADSVK | GRQAGTFDS | GPLM_Gen
7.1 nM | 6 of 6 | 0 of 18 | GFTLNDYGIS | VIYSDGRRTFYGDSVK | GRVAGTFDK | GPLM_HC
no signal | 0 of 6 | 0 of 18 | GFSINEYGIS | VIYADGRRTFYGNAVK | GMAAVTFDQ | En_Gibbs
no signal | 0 of 6 | 0 of 18 | GFSLEEFGIS | VIYADGSRRAYAQDVK | GGTAGIFVV | En_Gibbs
no signal | 0 of 6 | 0 of 18 | GYDLQDYGIS | VIYADGVRAFYHDSFK | GQLAGIFLL | En_Gibbs
2.4 nM | 6 of 6 | 0 of 18 | GFDLNEYGIS | VIYADGRRTFYVDSVK | GVNAGTFDF | En_HC
no signal | 0 of 6 | 0 of 18 | GFNLDEYGIS | VIYADGKRTAYADSVK | GNVAGTFDI | En_Gen
1.7 nM | 6 of 6 | 1 of 18 | YFDLNSYGIS | VIYSDGRRTFYADSVK | GRTAGTFDS | GP_Gen
150 pM | 3 of 6 | 0 of 18 | GFSLNEYGIS | VIYSDGRRTFYGDSVK | GRTAGTFDM | GPLM_Gen
22 nM | 2 of 6 | 1 of 18 | GFTLNSFGIS | VIYSDGRRTFYGDSVK | GRAAGTYDS | Ctrl
65 nM | 3 of 6 | 0 of 18 | GFDLEEYGIS | VIYADGIRMSYADNVK | GVYSGTDYV | En_Gibbs
9.1 nM | 6 of 6 | 0 of 18 | GFELNSYGIS | VIYADGRRTFYGDSVK | GWAAGTFDS | GPLM_Gen
2.7 nM | 6 of 6 | 0 of 18 | GFSLNQYGIS | VIYSDGRRTFYSDSVK | GEAAGTFDK | GP_HC
380 pM | 6 of 6 | 0 of 18 | GFDLDEYGIS | VIYADGVRTFYADSVK | GNVAGTFDL | En_Gen
48 nM | 2 of 6 | 0 of 18 | GYDIEEYGIS | VIYADGKRNAYANSFK | GKWAGTFDD | En_Gibbs
770 pM | 6 of 6 | 0 of 18 | GFDLNEYGIS | VIYADGMRTQYADSVK | GNVAGTFDL | En_Gen
no signal | 0 of 6 | 0 of 18 | GQDLNEYGIS | VIYADGKRVAYEDSVK | GKSKGLIFV | En_Gibbs
520 pM | 6 of 6 | 1 of 18 | GFDLDEYGIS | VIYADGKRTAYADSVK | GGNAGTFDI | En_Gen
1.6 µM | 1 of 6 | 0 of 18 | GFTLNDYGIS | VIYSDGRRTFYGDSVK | GRNAGQFDS | Ctrl

The opening 10 entries, copied out:

CDR-H1,CDR-H2,CDR-H3,group,Kd (apparent),replicates with signal,control signals
GDTLNSYGIS,VIYSDGRRTFYGDSVK,TRAAGTFDS,Ctrl,210 nM,1 of 6,0 of 18
GFTLNKYGIS,VIYADGRRTFYDDSVK,GRAAGTFIS,Ctrl,910 pM,6 of 6,0 of 18
GFSLKSYGIS,VIYSDGRRTFYADSVK,GQAAGTFDS,GPLM_Gen,4.2 nM,6 of 6,0 of 18
GFDIEEMGVS,VIYADGIRTAVSEDVK,GNVAGTGDF,En_Gibbs,350 pM,6 of 6,1 of 18
GFVLNSYGIS,VIYSDGRRTFYADSVK,GKTAGTFDS,GPLM_Gibbs,10 nM,6 of 6,0 of 18
GFDLDEYGIS,VIYADGMRKAYADSVK,GEVAGTFDL,En_Gen,370 pM,6 of 6,0 of 18
GDSLNEYGIS,VIYADGLRSKYADKFK,GQEAGYFDV,En_Gibbs,no signal,0 of 6,1 of 18
KFYLNSYGIN,VIYSDGIRTFYDDSVK,GQLAGTFDS,Rand,no signal,0 of 6,0 of 18
GFDLNEYGIS,VIYADGQRTAYIDSVK,GNQAGTFDV,En_Gen,480 pM,6 of 6,0 of 18
GFDLNEYGIS,VIYADGKRTAYTDSVK,GGNAGTFDV,En_Gen,570 pM,6 of 6,1 of 18

The range of this assay differs from that of the first round, and the authors advise against merging the two.
Nonspecific signal, from three strains lacking the peptide, appeared in 1% of pairings of all heavy chain designs, centred on 120 nM (5% of these signals below 7.0 nM); values are not corrected for it. Also given: how often the same scFv was detected with the empty control strains.
The parent sequence was in this pool as ten entries: three were never detected, three once, and four in most replicates, with averages from 2.2 nM to 240 nM.
The authors averaged sequences with at least three values out of six and counted those with two or fewer as poor binders.

Values reported by Li et al. 2023, doi:10.1038/s41467-023-39022-2 (FLAb copy).